From the kinase profiling compilation of Christmann-Franck et al. (2016)

Protein sequences, listed by entry. Tags and fused reporters are not part of them. Lines headed by an entry give the natural chain unless they say otherwise; changes in a name come on top.
UniProt P30530, whole entry, looked up: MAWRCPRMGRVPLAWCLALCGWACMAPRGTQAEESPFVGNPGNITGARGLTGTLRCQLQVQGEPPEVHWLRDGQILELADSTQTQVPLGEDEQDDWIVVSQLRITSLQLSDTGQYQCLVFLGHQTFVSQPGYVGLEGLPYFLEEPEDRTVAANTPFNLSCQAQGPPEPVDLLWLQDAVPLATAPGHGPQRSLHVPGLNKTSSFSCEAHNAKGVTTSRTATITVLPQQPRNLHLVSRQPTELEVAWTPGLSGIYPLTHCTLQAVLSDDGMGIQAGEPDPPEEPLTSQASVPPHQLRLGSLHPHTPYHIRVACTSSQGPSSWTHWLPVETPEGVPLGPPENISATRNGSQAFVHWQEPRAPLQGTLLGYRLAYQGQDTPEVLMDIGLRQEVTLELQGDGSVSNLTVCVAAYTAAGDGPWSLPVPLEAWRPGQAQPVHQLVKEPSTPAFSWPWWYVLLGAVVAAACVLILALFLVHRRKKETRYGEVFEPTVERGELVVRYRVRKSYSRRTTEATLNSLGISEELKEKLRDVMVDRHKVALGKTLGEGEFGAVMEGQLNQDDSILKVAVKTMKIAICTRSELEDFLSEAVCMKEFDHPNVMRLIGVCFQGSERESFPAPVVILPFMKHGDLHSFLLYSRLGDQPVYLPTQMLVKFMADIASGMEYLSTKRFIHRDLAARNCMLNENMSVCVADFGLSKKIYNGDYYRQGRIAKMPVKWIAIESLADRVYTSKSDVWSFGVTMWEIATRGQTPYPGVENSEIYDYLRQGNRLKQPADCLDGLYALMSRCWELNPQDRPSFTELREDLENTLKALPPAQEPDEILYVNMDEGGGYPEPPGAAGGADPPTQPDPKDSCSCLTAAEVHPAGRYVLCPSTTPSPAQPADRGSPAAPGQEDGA
UniProt Q9UPE1, whole entry, looked up: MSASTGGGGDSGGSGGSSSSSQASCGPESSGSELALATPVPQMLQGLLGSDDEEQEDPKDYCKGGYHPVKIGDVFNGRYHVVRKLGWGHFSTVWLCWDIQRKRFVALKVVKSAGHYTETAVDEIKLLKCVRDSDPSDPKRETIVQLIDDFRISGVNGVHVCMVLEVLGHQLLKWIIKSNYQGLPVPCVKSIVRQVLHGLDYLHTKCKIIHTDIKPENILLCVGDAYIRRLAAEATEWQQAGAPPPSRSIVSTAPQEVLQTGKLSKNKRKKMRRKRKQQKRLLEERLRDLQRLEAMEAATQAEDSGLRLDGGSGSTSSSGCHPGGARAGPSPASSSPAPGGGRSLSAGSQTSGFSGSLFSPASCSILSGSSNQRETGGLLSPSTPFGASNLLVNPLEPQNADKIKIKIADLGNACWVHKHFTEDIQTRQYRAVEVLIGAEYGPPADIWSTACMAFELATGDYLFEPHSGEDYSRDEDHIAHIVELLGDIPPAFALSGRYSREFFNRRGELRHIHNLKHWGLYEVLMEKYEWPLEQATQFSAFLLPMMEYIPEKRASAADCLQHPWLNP
UniProt P31751: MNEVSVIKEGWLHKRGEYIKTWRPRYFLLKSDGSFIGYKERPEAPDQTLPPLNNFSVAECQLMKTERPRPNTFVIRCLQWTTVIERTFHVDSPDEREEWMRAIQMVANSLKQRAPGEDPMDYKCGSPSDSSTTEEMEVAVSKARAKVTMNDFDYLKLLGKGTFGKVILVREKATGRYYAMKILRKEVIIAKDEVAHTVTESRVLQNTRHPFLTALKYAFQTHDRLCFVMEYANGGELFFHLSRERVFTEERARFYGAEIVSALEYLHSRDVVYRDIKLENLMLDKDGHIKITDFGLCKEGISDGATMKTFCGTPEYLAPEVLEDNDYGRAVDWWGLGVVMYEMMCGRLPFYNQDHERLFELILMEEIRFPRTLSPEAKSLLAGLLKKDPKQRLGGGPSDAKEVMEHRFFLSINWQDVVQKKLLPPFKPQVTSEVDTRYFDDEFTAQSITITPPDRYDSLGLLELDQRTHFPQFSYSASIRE

Key:
Assay in all cases: radiometric filter-binding kinase assay, Kinase HotSpot
Conditions in all cases: compound 0.5 µM; ATP 10 µM
AXL (human) = AXL (human) (UniProt P30530)
SRPK3 (human) = SRPK3 (human) (UniProt Q9UPE1)
AKT2 (human) = AKT2 (human) (UniProt P31751)

Cc1ccc(S(=O)(=O)/C=C/C#N)cc1
residual activity (AXL (human)): 107%

CC[n+]1c(/C=C/N(C)c2ccccc2)n(-c2ccccc2)c2ccc(-c3nc4ccccc4s3)cc21
residual activity (SRPK3 (human)): 107%

CC#CC(=O)Nc1cc2c(Nc3ccc(F)c(Cl)c3)ncnc2cn1
residual activity (AKT2 (human)): 103%
